Literature values as cited in patent US20230382950A1, “CYCLIC APELIN RECEPTOR AGONISTS” (priority 2020, published 2023).

Conditions: cited from earlier work

Apelin [reference compound]
half-life in the blood circulation: around one
